# Apparent affinities of Ab-14 variants for a coronavirus HR2 peptide

The target is the same throughout: PDVDLGDISGINAS, from the HR2 region of SARS-CoV-2 spike.

Parent scFv Ab-14: VH joined to VL by a 15-residue (Gly4Ser)3 linker. Changes lie in the light chain CDRs alone.
VH: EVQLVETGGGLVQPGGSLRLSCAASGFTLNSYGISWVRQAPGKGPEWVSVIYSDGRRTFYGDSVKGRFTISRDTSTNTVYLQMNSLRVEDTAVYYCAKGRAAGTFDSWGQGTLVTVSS
VL: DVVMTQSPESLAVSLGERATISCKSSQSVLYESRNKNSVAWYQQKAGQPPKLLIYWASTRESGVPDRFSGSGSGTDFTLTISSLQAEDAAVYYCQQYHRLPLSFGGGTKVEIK

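Phage display of a naive human antibody library on the peptide gave the parent. The variants were designed computationally from a first round of random CDR variants and then made and measured. Several design methods are mixed in this list. AlphaSeq pools MATa yeast showing the antibodies with MATalpha yeast showing the peptide. After mating in shaken culture at 30 °C for 16 h, diploids were selected and their barcode pairs sequenced. Each replicate has its own calibration line, from reference interactions of the BCL2 family. The assay was run in six technical replicates.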

Positions count from residue 1 of the parent VL; S25I puts I in place of S.
This list holds designs with at most six substitutions.
Numbers give log10(Kd / nM), so 0 is 1 nM and 3 is 1 µM. Smaller is tighter.
Averages over replicates are reported, and they cover detected replicates only.
An entry "nd" has no value in the source: the pair was not observed among the diploids in any replicate. This suggests poor binding but is not conclusive.

Variant S25I/V29W/W56N/T59Q showed -0.05 (6 of 6 replicates; controls 0 of 18). Variant Q27M/V29G/N35M/W56E showed -0.25 (6 of 6 replicates; controls 0 of 18). With S25L/Q27P/W56G the result was -0.50 (6 of 6 replicates; controls 0 of 18). Variant V29W/S38N/W56G/T59S showed 0.81 (6 of 6 replicates; controls 0 of 18). Variant E32N/R34T showed 2.59 (5 of 6 replicates; controls 2 of 18). Variant S25M/V29Y/W56N/T59Q gave -0.24 (6 of 6 replicates; controls 0 of 18). Variant S25L/S26Q/W56Q/E61S/S62D gave -0.18 (6 of 6 replicates; controls 1 of 18).

With Q27I/V29K/R34E/W56E/T59Q the result was 0.94 (6 of 6 replicates; controls 0 of 18). Variant Q27E/Y31R/S33D/Q95P gave 1.80 (2 of 6 replicates; controls 1 of 18). Variant S25L/V29M/W56G gave -0.09 (6 of 6 replicates; controls 0 of 18). Variant S25L/V29G/Y31M/S38N/W56E/T59Q showed -0.40 (6 of 6 replicates; controls 1 of 18). Variant S25G/R34G gave 2.20 (4 of 6 replicates; controls 0 of 18). Variant S25L/V29E/N37M/W56N gave -0.12 (6 of 6 replicates; controls 0 of 18). For S25V/S26R/V29T/Y31G, the assay gave 0.93 (6 of 6 replicates; controls 1 of 18).

With S25L/V29E/W56N/E61C the result was -0.12 (6 of 6 replicates; controls 1 of 18). With K24H/S25L/Q27W/S28V/W56N/A57G the result was -0.10 (6 of 6 replicates; controls 2 of 18). With S25L/S26E/V29Q/W56N/E61C the result was 0.51 (6 of 6 replicates; controls 1 of 18). With N37I/S62W/L102N the result was nd (0 of 6 replicates; controls 0 of 18). Variant S25L/V29Q/L30E/W56D/S58Q/T59Q showed 0.05 (6 of 6 replicates; controls 2 of 18). With S25L/S26Q/V29H/W56D/E61C the result was 0.16 (6 of 6 replicates; controls 1 of 18). With Q27I/V29Y/R34T/K36E/W56E/S62Q the result was 1.10 (6 of 6 replicates; controls 2 of 18).

For S25L/V29D/Y31C/W56D, the assay gave 0.35 (6 of 6 replicates; controls 1 of 18). Variant S25V/Q27W/Y31F/W56D showed 0.01 (6 of 6 replicates; controls 0 of 18). Variant A57S/R60L showed 1.41 (1 of 6 replicates; controls 0 of 18). For S25L/S38N/W56D/E61C, the assay gave -0.57 (6 of 6 replicates; controls 1 of 18). For S25L/V29E/N35W/W56N/T59Q, the assay gave 0.30 (6 of 6 replicates; controls 1 of 18). For K24W/V29W/N35T/K36Y/W56Y, the assay gave 1.89 (1 of 6 replicates; controls 0 of 18). Variant S25V/S28M/L30D/S38N/W56E/E61M showed -0.33 (6 of 6 replicates; controls 3 of 18).

Variant S25L/E32G/S33Q/W56H/E61M/S103Y gave 1.33 (6 of 6 replicates; controls 1 of 18). Variant S25Q/W56D/S62D/S103D showed -0.14 (6 of 6 replicates; controls 1 of 18). Variant S25L/S26K/L30G/S33E/W56G/T59Q gave -0.39 (6 of 6 replicates; controls 1 of 18). For S25L/S26L/E32Q/W56H/S62D/R99Q, the assay gave 0.04 (6 of 6 replicates; controls 1 of 18). Variant W56R/T59I/P101Q showed 1.89 (1 of 6 replicates; controls 0 of 18). Variant S25L/S26R/V29I/L30E/W56N/Q96I gave 0.79 (6 of 6 replicates; controls 5 of 18). Variant E61L/S62Q/Q96E/Y97C showed nd (0 of 6 replicates; controls 0 of 18).

Variant S25L/V29M/L30E/K36V/W56S/S103M showed 0.29 (6 of 6 replicates; controls 0 of 18). Variant S25L/V29M/S33E/W56H/T59Q/E61M gave 0.05 (6 of 6 replicates; controls 1 of 18). Variant S25L/S26M/V29N/W56N/E61M gave -0.16 (6 of 6 replicates; controls 0 of 18). For S25I/V29W/W56G/S62N, the assay gave -0.03 (6 of 6 replicates; controls 2 of 18). With Y31G/S62V the result was 1.47 (6 of 6 replicates; controls 0 of 18). Variant K24R/Y31D gave 1.23 (6 of 6 replicates; controls 0 of 18). Variant S25V/W56R showed 0.18 (6 of 6 replicates; controls 0 of 18).

Picked from the list: the 5 lowest averages where every replicate gave a value.

The variant S25L/S38N/W56D/E61C showed -0.57 (6 of 6 replicates; controls 1 of 18).
The variant S25L/Q27P/W56G showed -0.50 (6 of 6 replicates; controls 0 of 18).
The variant S25L/V29G/Y31M/S38N/W56E/T59Q showed -0.40 (6 of 6 replicates; controls 1 of 18).
The variant S25L/S26K/L30G/S33E/W56G/T59Q showed -0.39 (6 of 6 replicates; controls 1 of 18).
The variant S25V/S28M/L30D/S38N/W56E/E61M showed -0.33 (6 of 6 replicates; controls 3 of 18).

Empty control strains, which show no peptide, gave a signal in 4% of pairings with all light chain designs; the median was 2.64 and 95% of these signals were weaker than 1.59. No background was subtracted. Also given: how often the same scFv was detected with the empty control strains.
A sequence measured in both rounds can read differently, since the two assays cover different ranges.
The authors averaged sequences with at least three values out of six and counted those with two or fewer as poor binders.

Reference: Li et al. 2023, doi:10.1038/s41467-023-39022-2. File: FLAb, binding data.